Target: Orexin receptor type 2 (Homo sapiens, UniProt O43614)
Assay: FLIPR Ca2+ Flux Assay: For intracellular calcium measurements, Chinese hamster ovary (CHO) cells expressing the rat orexin-1 receptor or the human orexin-2 receptor, are grown in Iscove's modified DMEM containing 2 mM L-glutamine, […], 1% hypoxanthine-thymidine supplement, 100 U/ml penicillin, 100 μg/ml streptomycin and 10% heat-inactivated fetal calf serum (FCS). The cells are seeded at 20,000 cells/well into Becton-Dickinson black 384-well clear bottom sterile plates coated with poly-D-lysine. All reagents were from GIBCO-Invitrogen Corp. The seeded plates are incubated overnight at 37° C. and 5% CO2. Ala-6,12 human orexin-A as the agonist is prepared as a 1 mM stock solution in 1% bovine serum albumin (BSA) and diluted in assay buffer (HBSS containing 20 mM HEPES, 0.1% BSA and 2.5 mM probenecid, pH7.4) for use in the assay at a final concentration of 70 pM. Test compounds are prepared as 10 mM stock solution in DMSO, then diluted in 384-well plates, first in DMSO, then assay buffer. On the day of the assay, cells are washed 3 times with 100 μl assay buffer and then incubated for 60 min (37° C., 5% CO2) in 60 μl assay buffer containing 1 μM Fluo-4AM ester, 0.02% pluronic acid, and 1% BSA. The dye loading solution is then aspirated and cells are washed 3 times with 100 μl assay buffer. 30 μl of that same buffer is left in each well. […]
Format: cell-based

Chains of the proteins cited; added tags and fusions are not shown.
UniProt O43614, whole entry: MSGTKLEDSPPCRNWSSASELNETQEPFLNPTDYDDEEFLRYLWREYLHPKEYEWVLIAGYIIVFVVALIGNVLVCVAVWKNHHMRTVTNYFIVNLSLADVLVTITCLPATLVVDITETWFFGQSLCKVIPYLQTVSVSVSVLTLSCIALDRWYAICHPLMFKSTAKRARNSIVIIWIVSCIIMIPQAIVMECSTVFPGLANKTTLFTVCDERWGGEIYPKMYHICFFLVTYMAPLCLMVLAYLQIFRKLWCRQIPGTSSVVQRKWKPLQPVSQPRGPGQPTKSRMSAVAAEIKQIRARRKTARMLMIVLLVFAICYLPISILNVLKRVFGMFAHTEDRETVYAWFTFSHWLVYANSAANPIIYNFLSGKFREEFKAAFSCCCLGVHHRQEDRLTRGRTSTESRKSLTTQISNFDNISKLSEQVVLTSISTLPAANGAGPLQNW

## CC[C@](C)(O)c1nc([C@@H]2CC[C@@H](C)N(C(=O)c3ccsc3-n3nccn3)C2)oc1C
  IC50: 15 nM
